Read-outs that look alike come from different tables or passages of the source.
How the values were obtained:
[1] = target: HLA-DR DRB1*1101 (DR11) (Homo sapiens, UniProt P01903+P01911, A100R/A169T/A87E/I96F/K41T/L162R/M171V/P40S/Q125H/Q178H/Q39Y/Q99D/R42S/S66Y/T262R/V115G/W38E); assay: biochemical; assay type: binding; details: DRB1 *1101
[2] = target: HLA-A*2902 (Homo sapiens, UniProt P04439, A270S/D101N/D185E/E176V/E277Q/E87Q/F33T/G231S/H175R/I121M/I218V/I322F/K168Q/L300P/L318F/M331R/P208A/P217A/Q86L/T323A/T345S/V100A/V358M); assay: MHC molecular binding / Capture assay, IC50: A*2902
[3] = target: HLA-DR DRB1*0301 (DR3) (Homo sapiens, UniProt P01903+P01911, A100K/A102G/A103R/A169T/F55Y/I96L/K41T/L162R/M171V/P40S/Q125H/Q178H/Q39Y/R42S/S66N/T106N/T262R/W38E/Y61H); assay: biochemical; assay type: binding
[4] = target: HLA-DR DRB1*0901 (DR9) (Homo sapiens, UniProt P01903+P01911, A100R/A103E/D57H/D86V/F55Y/F60I/F76Y/I96F/K127E/L162R/M171V/P40D/Q125H/Q99R/R33Q/R42F/S133A/S66N/T210M/V115G/W38K/Y107V/Y59G/Y89S); assay: biochemical; assay type: binding; details: DRB1 *0901
[5] = target: HLA-DR DRB1*0701 (DR7) (Homo sapiens, UniProt P01903+P01911, A100R/A102G/A103Q/D57E/D86V/E43K/F76Y/K127E/L162R/M171V/P40G/Q125H/Q99D/R33Q/R42Y/R54Q/S133A/S66F/T210M/V115G/Y107V/Y59L/Y89S); assay: biochemical; assay type: binding; details: DRB1 *0701
[6] = target: HLA-DR DRB1*0802 (DR8) (Homo sapiens, UniProt P01903+P01911, A100R/A103L/A169T/F76Y/H45Y/I96F/K41T/L162R/M171V/P40S/Q125H/Q178H/Q39Y/Q99D/R218S/R42G/S66Y/V115G/W38E); assay: biochemical; assay type: binding

Q: `CC[C@H](C)[C@H](NC(=O)[C@H](CC(C)C)NC(=O)[C@H](CCCNC(=N)N)NC(=O)[C@@H]1CCCN1C(=O)[C@@H]1CCCN1C(=O)[C@H](C)N)C(=O)N[C@@H](CS)C(=O)N[C@@H](CC(=O)O)C(=O)N[C@@H](CO)C(=O)N[C@@H](CCCNC(=N)N)C(=O)N[C@H](C(=O)N[C@@H](CC(C)C)C(=O)N[C@@H](CCC(=O)O)C(=O)N[C@@H](CCCNC(=N)N)C(=O)N[C@@H](Cc1ccc(O)cc1)C(=O)O)C(C)C` was tested. Which IC50 [1] did it give?
A: > 1110 µM

Q: `CC(C)C[C@H](NC(=O)[C@H](CCC(=O)O)NC(=O)[C@@H](NC(=O)[C@H](C)N)[C@@H](C)O)C(=O)N[C@@H](Cc1c[nH]cn1)C(=O)N1CCC[C@H]1C(=O)N[C@@H](CCC(=O)O)C(=O)N[C@@H](Cc1ccc(O)cc1)C(=O)N[C@@H](Cc1ccc(O)cc1)C(=O)O` was tested. Which IC50 [2] did it give?
A: 6.61 µM

Q: Which IC50 [3] does the source give for `CC(C)C[C@H](NC(=O)[C@H](CO)NC(=O)[C@H](CC(N)=O)NC(=O)[C@H](C)NC(=O)[C@H](Cc1ccccc1)NC(=O)[C@@H](NC(=O)[C@H](CO)NC(=O)[C@H](CCCNC(=N)N)NC(=O)[C@H](CC(C)C)NC(=O)[C@@H](N)Cc1ccccc1)C(C)C)C(=O)N[C@H](C(=O)N[C@@H](Cc1ccc(O)cc1)C(=O)NCC(=O)N[C@@H](C)C(=O)N[C@@H](CO)C(=O)O)C(C)C` here?
A: 15.2 µM

Q: What does the source list for `CC[C@H](C)[C@H](NC(=O)[C@@H](NC(=O)[C@@H]1CCCN1C(=O)[C@@H](N)Cc1ccccc1)[C@@H](C)O)C(=O)N1CCC[C@H]1C(=O)N[C@@H](CC(C)C)C(=O)N[C@@H](CO)C(=O)N[C@@H](CCCNC(=N)N)C(=O)N[C@@H](CC(C)C)C(=O)N[C@@H](Cc1ccccc1)C(=O)N[C@@H](CC(=O)O)C(=O)N[C@@H](CC(N)=O)C(=O)N[C@@H](C)C(=O)N[C@@H](CO)C(=O)N[C@@H](CC(C)C)C(=O)O`?
A: IC50 [1]: 30.7 µM; IC50 [3]: 115 µM

Q: How did the IC50 [2] turn out when `CC(C)[C@H](NC(=O)[C@H](CCCCN)NC(=O)[C@H](CO)NC(=O)[C@H](Cc1ccc(O)cc1)NC(=O)[C@@H](N)Cc1ccccc1)C(=O)N[C@@H](CCCNC(=N)N)C(=O)N[C@@H](CCCCN)C(=O)N[C@@H](Cc1ccc(O)cc1)C(=O)N[C@@H](CCCNC(=N)N)C(=O)N[C@@H](Cc1ccccc1)C(=O)O` was run?
A: 3.04 µM

Q: For `CC(C)C[C@H](NC(=O)[C@@H](NC(=O)[C@@H]1CCCN1C(=O)[C@@H](NC(=O)[C@H](CC(=O)O)NC(=O)[C@@H](NC(=O)[C@@H](N)Cc1c[nH]cn1)[C@@H](C)O)[C@@H](C)O)[C@@H](C)O)C(=O)N[C@@H](Cc1c[nH]cn1)C(=O)N[C@@H](CCC(=O)O)C(=O)N[C@@H](Cc1ccc(O)cc1)C(=O)O`, which IC50 [2] is on record?
A: 1.51 µM

Q: How did the IC50 [4] turn out when `CC[C@H](C)[C@H](N)C(=O)N[C@@H](CS)C(=O)N[C@@H](CC(=O)O)C(=O)N[C@@H](CO)C(=O)N[C@@H](CCCNC(=N)N)C(=O)N[C@H](C(=O)N[C@@H](CC(C)C)C(=O)N[C@@H](CCC(=O)O)C(=O)N[C@@H](CCCNC(=N)N)C(=O)N[C@@H](Cc1ccc(O)cc1)C(=O)N[C@@H](CC(C)C)C(=O)N[C@@H](CC(C)C)C(=O)N[C@@H](CCC(=O)O)C(=O)N[C@@H](C)C(=O)N[C@@H](CCCCN)C(=O)O)C(C)C` was run?
A: > 78.9 µM

Q: What about the IC50 [5] of the same compound?
A: 57.6 µM

Q: Which IC50 [1] does the source give for `CC(C)C[C@H](NC(=O)CNC(=O)[C@H](CC(N)=O)NC(=O)[C@H](Cc1ccc(O)cc1)NC(=O)[C@@H](NC(=O)[C@H](CC(=O)O)NC(=O)[C@@H](N)CC(C)C)C(C)C)C(=O)N[C@@H](CC(C)C)C(=O)N1CCC[C@H]1C(=O)N1CCC[C@H]1C(=O)N[C@@H](Cc1ccc(O)cc1)C(=O)N[C@@H](C)C(=O)N[C@@H](CO)C(=O)N[C@@H](CS)C(=O)N[C@@H](Cc1c[nH]cn1)C(=O)O` here?
A: 0.194 µM

Q: Which IC50 [4] does the source give for `CC(C)C[C@H](NC(=O)[C@H](CCCCN)NC(=O)[C@H](CC(C)C)NC(=O)[C@H](CCCCN)NC(=O)CNC(=O)[C@H](CCCNC(=N)N)NC(=O)[C@H](CC(C)C)NC(=O)[C@H](Cc1ccccc1)NC(=O)[C@H](CC(N)=O)NC(=O)[C@H](CO)NC(=O)[C@H](Cc1ccc(O)cc1)NC(=O)[C@@H](NC(=O)[C@H](CCCNC(=N)N)NC(=O)[C@H](Cc1ccccc1)NC(=O)[C@@H](N)CC(C)C)C(C)C)C(=O)O` here?
A: 3.51 µM

Q: With `CC(C)C[C@H](NC(=O)[C@H](C)NC(=O)[C@H](CC(C)C)NC(=O)[C@@H](N)CC(N)=O)C(=O)N[C@@H](CC(C)C)C(=O)N[C@@H](Cc1ccc(O)cc1)C(=O)NCC(=O)N[C@@H](CCC(=O)O)C(=O)N[C@@H](Cc1ccc(O)cc1)C(=O)O` as the compound, how does the IC50 ([2]; Binding affinity to A*2902 (expressed as an IC50)) read?
A: 0.138 µM

Q: With `CC[C@H](C)[C@H](NC(=O)[C@H](CCC(=O)O)NC(=O)[C@H](CC(C)C)NC(=O)[C@H](C)NC(=O)[C@H](CO)NC(=O)[C@H](CO)NC(=O)[C@H](CC(C)C)NC(=O)[C@H](CCC(=O)O)NC(=O)[C@H](Cc1c[nH]cn1)NC(=O)[C@H](CC(C)C)NC(=O)[C@H](CCCCN)NC(=O)[C@H](CCCNC(=N)N)NC(=O)[C@@H]1CCCN1)C(=O)N1CCC[C@H]1C(=O)N[C@@H](Cc1ccc(O)cc1)C(=O)O` as the compound, how does the IC50 [1] read?
A: 5.99 µM

Q: With `CC(C)C[C@H](NC(=O)[C@H](CCC(N)=O)NC(=O)[C@H](CC(C)C)NC(=O)[C@@H]1CCCN1C(=O)[C@H](CCC(=O)O)NC(=O)[C@H](Cc1c[nH]c2ccccc12)NC(=O)[C@@H]1CCCN1C(=O)[C@@H](N)CCC(N)=O)C(=O)N[C@@H](Cc1c[nH]cn1)C(=O)N[C@H](C(=O)N[C@@H](CC(=O)O)C(=O)N[C@@H](CCCCN)C(=O)N[C@@H](C)C(=O)N[C@H](C(=O)N[C@@H](CO)C(=O)O)C(C)C)C(C)C` as the compound, how does the IC50 [4] read?
A: 34.8 µM

Q: What about the IC50 [1] of the same compound?
A: 8.9 µM

Q: And the IC50 [6]?
A: > 63.6 µM

Q: `CC(C)C[C@H](NC(=O)[C@H](CS)NC(=O)[C@H](Cc1c[nH]cn1)NC(=O)[C@H](C)NC(=O)[C@H](C)NC(=O)[C@@H](NC(=O)[C@H](CC(C)C)NC(=O)[C@@H](NC(=O)[C@H](Cc1c[nH]c2ccccc12)NC(=O)[C@@H](N)CCC(N)=O)C(C)C)[C@@H](C)O)C(=O)N[C@@H](CCCCN)C(=O)N[C@@H](CCCCN)C(=O)N[C@@H](CC(N)=O)C(=O)N[C@@H](CO)C(=O)N[C@@H](CCC(N)=O)C(=O)O` was tested. Which IC50 [1] did it give?
A: 14.2 µM

Q: Which results are given for `CC(C)C[C@H](NC(=O)[C@H](CCC(N)=O)NC(=O)[C@H](Cc1c[nH]c2ccccc12)NC(=O)[C@H](CC(C)C)NC(=O)[C@H](CC(C)C)NC(=O)[C@H](CCCCN)NC(=O)[C@H](CCC(N)=O)NC(=O)[C@H](CO)NC(=O)[C@H](CCC(N)=O)NC(=O)[C@H](CS)NC(=O)[C@H](CC(N)=O)NC(=O)[C@H](CO)NC(=O)[C@H](CO)NC(=O)[C@@H](N)CCCNC(=N)N)C(=O)N[C@@H](CC(N)=O)C(=O)O`?
A: IC50 [4]: 4.06 µM; IC50 [5]: 8.92 µM

From patent publication US20060079453A1, “Hla binding peptides and their uses” (priority 2002, published 2006)
